The target in test [1] is catalytic domain of human SHP2 (Homo sapiens, UniProt Q06124). The test is described as follows: Enzyme activity assay of SHP2 catalytic domain with fluorogenic substrate DiFMUP. The format is biochemical. As to conditions: read-out: IC50 SHP2, hydrazine fragments alone, Supporting Table 1.
In test [2] the target is catalytic domain of human PTP1B (Homo sapiens, UniProt P18031). Put plainly: Enzyme activity assay of PTP1B with fluorogenic substrate DiFMUP. The conditions noted are these: read-out: IC50 PTP1B, hydrazine fragments alone, Supporting Table 1.

The chains behind the UniProt entries cited, without tags or fusion partners. Residues count along the entry.
UniProt Q06124, 225-541 limits assumed: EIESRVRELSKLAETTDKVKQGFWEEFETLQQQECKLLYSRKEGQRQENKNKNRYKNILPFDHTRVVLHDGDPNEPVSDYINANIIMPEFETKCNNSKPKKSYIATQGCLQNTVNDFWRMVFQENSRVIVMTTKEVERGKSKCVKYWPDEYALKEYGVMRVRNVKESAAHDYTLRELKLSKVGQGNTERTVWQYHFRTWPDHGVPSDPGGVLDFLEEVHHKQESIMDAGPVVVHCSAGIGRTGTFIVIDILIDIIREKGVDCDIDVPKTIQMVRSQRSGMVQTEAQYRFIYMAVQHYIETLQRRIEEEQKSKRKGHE
UniProt P18031, 1-321 limits assumed: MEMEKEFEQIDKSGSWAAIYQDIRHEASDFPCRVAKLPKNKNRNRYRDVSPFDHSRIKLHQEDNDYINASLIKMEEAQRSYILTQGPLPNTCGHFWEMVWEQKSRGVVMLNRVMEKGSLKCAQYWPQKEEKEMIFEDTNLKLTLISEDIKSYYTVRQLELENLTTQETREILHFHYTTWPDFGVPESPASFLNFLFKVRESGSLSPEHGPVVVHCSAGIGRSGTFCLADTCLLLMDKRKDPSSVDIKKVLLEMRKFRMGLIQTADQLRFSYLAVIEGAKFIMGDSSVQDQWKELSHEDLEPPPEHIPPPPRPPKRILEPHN

Structures are written as SMILES. A value given as a limit tells only on which side of the number the result lay.

In general, IC50 refers to the concentration at which inhibition is half-maximal.

Consider `NNc1ccc(C(F)(F)F)cc1`, for which the IC50 in test [1] and in test [2] was more than 250 µM in each case.

With `NNc1ccc(S(=O)(=O)O)cc1Cl`, the IC50 in test [1] came to 74 µM; in test [2], 29 µM.

In the case of `NNc1cc(F)c(S(=O)(=O)O)cc1F`, the IC50 in test [1] is 12.6 µM; in test [2], more than 250 µM.

As for `NNc1cc(Cl)c(S(=O)(=O)O)cc1Cl`, the IC50 in test [1] was 4.3 µM; in test [2], more than 250 µM.

For the compound `NNc1cc(Br)c(S(=O)(=O)O)cc1Br`, the IC50 in test [1] was found to be 77 µM; in test [2] it was 244 µM.

The values above are taken from PMC9804470, “A Formylglycine‐Peptide for the Site‐Directed Identification of Phosphotyrosine‐Mimetic Fragments” (Chemistry (Weinheim an Der Bergstrasse, Germany), 2022).
